Data on one compound can be found in patent publication US20060252670A1, “Method of reducing drug-induced adverse side effects in a patient” (Intercept Pharmaceuticals Inc., priority 2004, published 2006).

The subject of this series is liver fibrosis induced by porcine serum. Description: Liver fibrosis induced by 8-week porcine serum administration to rats: 6-ECDCA, rosiglitazone and combination. The note with it: for ALP / ALT / Bilirubin: porcine serum rats, 8 weeks, mean ± SE.

For `CN(CCOc1ccc(CC2SC(=O)NC2=O)cc1)c1ccccn1` (stereo not shown) [rosiglitazone, reference compound], the “liver function as measured by plasma ALT, alkaline phosphatase and bilirubin” value (1 and 3 mg/kg, P>0.05 versus control and porcine serum-treated rats) is reported as “did not affect liver function”. Under “oral 1 mg/kg (each drug)”, the ALP is 23.4 ± 3.7 U/dl, the ALT was determined as 47.6 ± 4.2 U/L and the Bilirubin is 0.3 ± 0.06 mg/dL. In addition, for the setting “oral 3 mg/kg (each drug)”, the ALP came to 25.6 ± 3.1 U/dl, the ALT is recorded as 40.7 ± 5.2 U/L and the Bilirubin was determined as 0.3 ± 0.07 mg/dL.
